Drawing on patent publication US6387389B1 (priority 1996, dated 2002), this text covers IC50 for 1 molecule.

By UniProt entry, the sequences of proteins in these tests, tags left out.
UniProt P31652, whole entry: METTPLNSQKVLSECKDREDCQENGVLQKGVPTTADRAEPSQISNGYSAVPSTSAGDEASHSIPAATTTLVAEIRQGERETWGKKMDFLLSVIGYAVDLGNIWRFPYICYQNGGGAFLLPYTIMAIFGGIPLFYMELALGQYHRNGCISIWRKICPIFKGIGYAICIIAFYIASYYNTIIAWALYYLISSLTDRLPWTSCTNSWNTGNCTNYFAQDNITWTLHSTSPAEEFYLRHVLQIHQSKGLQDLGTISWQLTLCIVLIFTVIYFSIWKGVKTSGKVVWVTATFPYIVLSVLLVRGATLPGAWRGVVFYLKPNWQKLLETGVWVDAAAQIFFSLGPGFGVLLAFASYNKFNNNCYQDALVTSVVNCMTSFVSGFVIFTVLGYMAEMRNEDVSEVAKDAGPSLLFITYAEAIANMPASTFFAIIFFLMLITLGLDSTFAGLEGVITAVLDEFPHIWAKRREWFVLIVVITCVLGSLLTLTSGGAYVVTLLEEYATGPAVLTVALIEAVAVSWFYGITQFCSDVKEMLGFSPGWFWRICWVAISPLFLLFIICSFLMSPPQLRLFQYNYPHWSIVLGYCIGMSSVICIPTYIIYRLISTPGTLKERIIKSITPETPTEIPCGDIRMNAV

The experiment has as its target serotonin transporter (ST) (Rattus norvegicus, UniProt P31652). The conditions noted are these: read-out: SERT labeled [125I] RTI 55 binding, 18 to 24 hrs at 4° C.

pIC50: −log10 of the molar value.

Regarding `Fc1ccc(C(OCCN2CCN(CCCc3ccccc3)CC2)c2ccc(F)cc2)cc1` [GBR 12909, 1-[2-[bis(4-fluorophenyl)methoxy]ethyl]-4-[3-phenylpropyl]piperazine], the pIC50 was 6.90.
